From patent publication US11464773B2, “Nutlin-3a for treatment of proliferative vitreoretinopathy” (The Schepens Eye Research Institute, Inc., priority 2012, dated 2022)

System: F cells
Assay: Collagen contraction assay, RV-induced, F cells
Assay type: cell-based, mouse
Settings: Imatinib 10 μM, day 3
Experimental: FIGS. 10A-10B include a series of bar graphs showing that inhibiting PDGFRα kinase activity blocked RV-induced collagen contraction. The indicated RCFs (50,000 cells/ml) (FIG. 10A) or F cells (1 million cells/ml) (FIG. 10B) were subjected to a collagen contraction assays as described below. […] After the collagen was solidified (90 minutes), DMEM or RV (diluted 1:3 in DMEM) supplemented with Imatinib (10 μM) or its vehicle was added, and replenished every 24 hours; the experiments were terminated on day 3. The panels below the bar graphs show photographs of representative gels; the data presented are representative of 3 independent experiments. The data were subjected to a paired t test; “*” denoted a statistically significant difference.
RPEM cells are RPE cells derived from a human epiretinal membrane, as previously described (Wong C A et al., 2002 Can J Ophthalmol, 37:211-220). Primary rabbit conjunctival fibroblasts (RCFs) were obtained and cultured as described previously (Ikuno Y et al., 2002 Invest Ophthalmol Vis Sci, 43:2406-2411). […]
Cells were trypsinized, washed and resuspended in 1.5 mg/ml of neutralized collagen I (INAMED, Fremont, Calif.) (pH 7.2) at a density of 1×10^6 cells/ml for RPEM or 5×10^4 cells/ml for RCFs. […] The media were replaced every day, and the gel diameter was measured on day 3. The gel area was calculated using the formula πr2, where r is the radius of the gel.

Cc1ccc(NC(=O)c2ccc(CN3CCN(C)CC3)cc2)cc1Nc1nccc(-c2cccnc2)n1 [Imatinib]
RV-induced contraction in F cells (no PDGFR): unaffected
